Laboratory results as given in PubChem BioAssay AID1825 (The Scripps Research Institute Molecular Screening Center, 2009).
The entries are a selection whose mix differs from that of the whole data set. Activity calls are given as the source filed them. No stated cut-off is given here; in the data, active means inhibition above about 22%; inactive means the rest.

Assay: cytotoxicity in IEC-6 intestinal epithelial cells, primary screen, cytotoxicity control for KLF5 inhibitor project, cell-based, luminescence (AID 1825);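 further: 0% = plate median of test compound wells and 100% = cytotoxic reference compound wells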
Conditions: IEC-6 cytotoxicity, luminescence viability; at 5 µM; hits give high values

| SMILES | inhibition |
| --- | --- |
| COc1cc(OC)c(C(=O)NCC2(N(C)C)CCCCC2)cc1OC | inactive: -1.9% |
| CC(C)c1ccc(NC2CCN(C(=O)OC(C)(C)C)CC2)cc1 | inactive: 4.5% |
| CN(C)c1cccc(C(=O)NCC2(N3CCCCC3)CCCCC2)c1 | inactive: 3.5% |
| COc1ccc(CN(CCCl)CCCl)cc1Cl | inactive: -1.4% |
| CCCOc1ccc(C(=O)NCC2(N(C)C)CCCCC2)cc1OC | inactive: 4.5% |
| CN1CCC(Nc2cccc(F)c2)CC1 | inactive: 8.9% |
| N#CC1(Nc2ccccc2)CCN(CCc2ccccc2)CC1 | inactive: -0.8% |
| CCN1CCC(Nc2ccc(Cl)cc2)CC1 | inactive: -10.5% |
| O=C(NCC1(N2CCCCC2)CCCCC1)c1cccc([N+](=O)[O-])c1 | inactive: -9.4% |
| O=C(NCC1(N2CCCCC2)CCCCC1)c1ccc(OC(F)F)cc1 | inactive: -1.6% |
| O=C(NCC1(N2CCOCC2)CCCCC1)c1cc(=O)[nH]c2ccccc12 | inactive: 3.2% |
| COc1cc(C(=O)NCC2(N3CCCCC3)CCCCC2)ccc1OC(F)F | inactive: -0.8% |
| COc1ccc(NC2CCN(C(=O)OC(C)(C)C)CC2)cc1 | inactive: -6.8% |
| CN1CCN(CCOC(=O)C(O)(c2ccccc2)c2ccccc2)CC1 | inactive: -2.7% |
| O=C(NCC1(N2CCCCC2)CCCCC1)c1cccc(C(F)(F)F)c1 | inactive: -0.6% |
| CCOC(=O)N1CCC(Nc2ccc(F)cc2)CC1 | inactive: 5.1% |
| COc1ccc(NC2CCN(CCc3ccccc3)CC2)c(OC)c1 | inactive: -4.9% |
| O=C(NCC1(N2CCCCC2)CCCCC1)c1ccc(F)cc1 | inactive: -3.4% |
| CCOc1ccc(C)cc1CN(CCCl)CCCl | inactive: -4.4% |
| Cc1ccc(OCC(C)C)c(CN(CCCl)CCCl)c1 | inactive: 4% |
| CCOC(=O)N1CCC(Nc2cccc(C)c2)CC1 | inactive: 9.1% |
| COc1cc(C(=O)NCC2(N(C)C)CCCCC2)ccc1OC(F)F | inactive: 1.3% |
| CSc1ccccc1C(=O)NCC1(N2CCCCC2)CCCCC1 | inactive: 0.4% |
| COc1ccc(C(=O)NCC2(N3CCCCC3)CCCCC2)c(OC)c1OC | inactive: -4.9% |
| CC(C)(C)OC(=O)N1CCC(N(C(=O)c2ccccc2)c2ccc(F)cc2)CC1 | inactive: -0.6% |
| COc1ccc(C(=O)NCC2(N3CCCCC3)CCCCC2)cc1 | inactive: 2.3% |
| O=C(NCC1(N2CCCCC2)CCCCC1)c1ccc(=O)[nH]c1 | inactive: -2.4% |

| SMILES | inhibition |
| --- | --- |
| N#CC1(Nc2ccccc2)CCN(Cc2ccccc2)CC1 | inactive: -4% |
| O=C(OC1CN2CCC1CC2)C1c2ccccc2Oc2ccccc21 (centres undefined) | inactive: 1% |
| CCOC(=O)N1CCC(Nc2ccc(OC)cc2)CC1 | inactive: 0.6% |
| Cc1cc(C)cc(N(C(=O)c2ccccc2)C2CCN(C(=O)OC(C)(C)C)CC2)c1 | inactive: -1.7% |
| O=C(NCC1(N2CCOCC2)CCCCC1)c1cc2ccccc2o1 | inactive: -2.6% |
| O=C(O)C1(Nc2ccccc2)CCN(Cc2ccccc2)CC1 | inactive: -6% |
| CC(C)(C)OC(=O)N1CCC(Nc2ccccc2)CC1 | inactive: 1.4% |
| CCCOc1ccc(C(=O)NCC2(N(C)C)CCCCC2)cc1 | inactive: 2.2% |
| CN1CCC(Nc2ccc(F)c(Cl)c2)CC1 | inactive: 1.2% |
| CCOc1ncccc1C(=O)NCC1(N2CCOCC2)CCCCC1 | inactive: 5.2% |
| CN1CCC(Nc2ccc(Cl)cc2)CC1 | inactive: -0.7% |
| CCCOc1ccc(C)cc1CN(CCCl)CCCl | inactive: -2.2% |
| COc1cccc(C(=O)N(c2cc(C)cc(C)c2)C2CCN(C(=O)OC(C)(C)C)CC2)c1 | inactive: 0.4% |
| COc1cc(OC)cc(C(=O)NCC2(N3CCOCC3)CCCCC2)c1 | inactive: 4.4% |
| CCC(CO)(C(=O)OC1CN2CCC1CC2)c1ccccc1 (centres undefined) | inactive: -1.5% |
| COc1cc(OC)cc(C(=O)NCC2(N3CCCCC3)CCCCC2)c1 | inactive: 9.3% |
| CN(C)c1ccc(C(=O)NCC2(N3CCCCC3)CCCCC2)cc1 | inactive: -0.8% |
| CCN1CCC(Nc2cccc(F)c2)CC1 | inactive: 2.7% |
| N#Cc1ccc(C(=O)NCC2(N3CCCCC3)CCCCC2)cc1 | inactive: 3.6% |
| CC(C)(C)OC(=O)N1CCC(N(C(=O)c2ccccc2)c2ccc(Cl)cc2)CC1 | inactive: -5.3% |
| CN(C)C1(CNC(=O)c2cccc(C#N)c2)CCCCC1 | inactive: 2.4% |
| CCCN1CCC(Nc2cc(OC)cc(OC)c2)CC1 | inactive: 1.4% |
| c1ccc(CN2CCC(Nc3ccccc3)CC2)cc1 | inactive: -0.6% |
| COc1ccc(C(=O)NCC2(N3CCOCC3)CCCCC2)cc1OC | inactive: 5.2% |
| O=C(OC1CN2CCC1CC2)C1c2ccccc2C=Cc2ccccc21 (centres undefined) | inactive: -1.9% |
| CCOC(=O)N1CCC(Nc2ccc(C)cc2)CC1 | inactive: -10.3% |
| N/C(=N\O)c1c(N)no[n+]1[O-] | inactive: 2.9% |
